# Experimental properties from OPERA 2.9

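These are experimental values that the OPERA curators gathered from public databases to train and test their QSAR models. A listed value is a point estimate from one report or more. Conditions of the individual experiments are not part of the data. Where a salt, mixture or single isomer is drawn, the source does not say that exactly this form was tested. Some entries may be limits or estimates that an upstream database listed as plain numbers.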

Melting points are in °C.
The boiling point refers to atmospheric pressure (760 mmHg), by the definition of the set.
logP is the log10 of the octanol-water partition coefficient; higher is more lipophilic.
Solubility in water is on a log10 molar scale (set defined at 25 °C).
Vapor pressures (log10 mmHg) refer to near room temperature, 15 to 30 °C; higher is more volatile.
Henry's law constant (air-water partitioning) is log10 of atm·m3/mol, nominally at 25 °C.
fu is the fraction unbound in human plasma, from 0 to 1.
Intrinsic clearance (human, µL/min per 10^6 hepatocytes): higher is faster turnover, and 0 stands for none detected.

{"smiles": "O=C1N=C(O)C2=C1CCCC2", "mp (°C)": "191.6", "logP": "1.48", "log solubility (log10 mol/L)": "-1.975"}
{"smiles": "CNC(=O)N(C)c1nnc(C(F)(F)F)s1", "vapor pressure (log10 mmHg)": "-5.437", "log H (log10 atm·m3/mol)": "-10.64"}
{"smiles": "Cc1ccc(/N=N/c2c(O)c(C(=O)[O-])cc3ccccc23)c(S(=O)(=O)[O-])c1.[Ca+2]", "logP": "0.795", "log solubility (log10 mol/L)": "-4.678"}
{"smiles": "CC(=O)OCC1=C(C(=O)O)N2C(=O)[C@@H](NC(=O)CSc3ccncc3)[C@H]2SC1", "log solubility (log10 mol/L)": "-2.611", "plasma fu": "0.5083"}
{"smiles": "CCC[C@H]1CC[C@H](C2CCC(CC)CC2)CC1", "stereo": "stereo partly drawn", "mp (°C)": "65.7", "bp (°C)": "323.7", "vapor pressure (log10 mmHg)": "-3.618"}
{"smiles": "C[C@H](CC=O)CCCC(C)(C)O", "logP": "1.68", "vapor pressure (log10 mmHg)": "-2.387"}
{"smiles": "C=C(C)C(=O)OCCOCC", "logP": "1.8", "vapor pressure (log10 mmHg)": "-1.01"}
{"smiles": "CC1=NN(c2ccccc2)C(=O)C1/N=N/c1cccc([N+](C)(C)C)c1.[Cl-]", "stereo": "stereo partly drawn", "logP": "1.14", "log solubility (log10 mol/L)": "-1.894"}
{"smiles": "CCO[Si](C)(N(C)C(=O)c1ccccc1)N(C)C(=O)c1ccccc1", "logP": "0.95", "vapor pressure (log10 mmHg)": "-4.912"}
{"smiles": "CC1(C)C2CCC1(CS(=O)(=O)O)C(=O)C2.O=C(O)C(c1ccccc1Cl)N1CCc2sccc2C1", "stereo": "configuration not stated", "mp (°C)": "165.5", "logP": "4.4", "log solubility (log10 mol/L)": "-3.613"}
{"smiles": "CCCCOC(=O)NC(=S)SCCCC", "logP": "4.69", "log solubility (log10 mol/L)": "-5.13", "vapor pressure (log10 mmHg)": "-2.444"}
{"smiles": "Cc1[nH]n(-c2ccccc2)c(=O)c1N=Nc1ccccc1", "log solubility (log10 mol/L)": "-7.541", "vapor pressure (log10 mmHg)": "-8.202"}
{"smiles": "CCC(C)(C)c1ccccc1O", "logP": "4", "log solubility (log10 mol/L)": "-2.491", "vapor pressure (log10 mmHg)": "-1.426"}
{"smiles": "C=CC(C)CCCC(C)(C)O", "stereo": "configuration not stated", "logP": "3.47", "log solubility (log10 mol/L)": "-2.507", "vapor pressure (log10 mmHg)": "-0.872"}
{"smiles": "CCCCCCCCCCOS(=O)(=O)[O-].[Na+]", "mp (°C)": "168", "logP": "1.72"}
{"smiles": "CCCCCCOC", "logP": "3.6", "log solubility (log10 mol/L)": "-2.245", "vapor pressure (log10 mmHg)": "1.215"}
{"smiles": "OC[C@H](O)[C@@H]1OC(c2ccc(Cl)cc2)O[C@@H]2COC(c3ccc(Cl)cc3)O[C@H]12", "stereo": "some centres undefined", "logP": "3.68", "log solubility (log10 mol/L)": "-6.108", "vapor pressure (log10 mmHg)": "-7.411"}
{"smiles": "CC1=CCC(C=CC(C)C(C)O)C1(C)C", "stereo": "configuration not stated", "log solubility (log10 mol/L)": "-3.786", "vapor pressure (log10 mmHg)": "-2.176"}
{"smiles": "O=C(O)c1ccccc1C(=O)Nc1ccc(S(=O)(=O)Nc2nccs2)cc1", "logP": "0.01", "log solubility (log10 mol/L)": "-3.227"}
{"smiles": "Nc1ccc2c(c1)C(=O)c1ccccc1C2=O", "plasma fu": "0.0305", "hepatic Clint (µL/min/10^6 cells)": "30.8"}
{"smiles": "CCC1CC2CC1CC2OC", "stereo": "configuration not stated", "log solubility (log10 mol/L)": "-2.724", "vapor pressure (log10 mmHg)": "0.039"}
{"smiles": "CCCCCCCC(=O)OCCOc1ccccc1", "mp (°C)": "14", "bp (°C)": "342", "logP": "4.9", "vapor pressure (log10 mmHg)": "-4.535"}
{"smiles": "CCC1(C)CC(=O)C(C)C(C)(CC)N1OC(C)c1ccccc1", "stereo": "configuration not stated", "mp (°C)": "-49.7", "log solubility (log10 mol/L)": "-6.179", "vapor pressure (log10 mmHg)": "-4.727"}
{"smiles": "CC(=O)N(CCN(C(C)=O)C(C)=O)C(C)=O", "logP": "-0.09", "log solubility (log10 mol/L)": "-2.279"}

Excerpt, the opening 3 entries:

{"smiles": "O=C1N=C(O)C2=C1CCCC2", "mp (°C)": "191.6", "logP": "1.48", "log solubility (log10 mol/L)": "-1.975"}
{"smiles": "CNC(=O)N(C)c1nnc(C(F)(F)F)s1", "vapor pressure (log10 mmHg)": "-5.437", "log H (log10 atm·m3/mol)": "-10.64"}
{"smiles": "Cc1ccc(/N=N/c2c(O)c(C(=O)[O-])cc3ccccc23)c(S(=O)(=O)[O-])c1.[Ca+2]", "logP": "0.795", "log solubility (log10 mol/L)": "-4.678"}

From the experimental data distributed with OPERA 2.9.